What all share (type): cell-based
One data set concerns HCT-115. In words: in vitro cytotoxicity assay, HCT-115. Conditions: HCT-115 human cancer cell line. As for the experimental part:
(§1) IR spectra were measured on a Bruker EQUINOX 55/S FT-IR/NIR spectrophotometer (Ettlingen, DE). Optical rotations were determined on a Perkin-Elmer 241 instrument at the sodium D line (589 nm). High-resolution mass spectrometry (HRMS) analyses were acquired on an IonSpec HiRes MALDI FT mass spectrometer (Lake Forest, Calif.) for HRMALDIMS or on an Agilent 1100 series LC/MSD Trap SL for HRESIMS (Santa Clara, Calif.). NMR data were recorded on a Varian Unity Inova 400 or 500 MHz NMR spectrometer (Varian, Inc., Palo Alto, Calif.). ^1H and ^13C NMR chemical shifts were referenced to residual solvent signals: δH 7.26 ppm and […] for CDCl3. ^1H-^1H COSY, HMQC, HMBC, HETLOC, gHSQMBC, and gDQCOSY were performed using either standard Varian pulse sequences or literature pulse sequences (Uhrin et al., 1998; Williamson et al., 2000). High-performance liquid chromatography (HPLC) analysis was carried out on a Varian HPLC system equipped with ProStar 210 pumps and a photodiode detector. Mobile phases used were buffer A (H2O) and buffer B (CH3CN). Analytical and semipreparative HPLC columns used were Alltech Alltima C18 columns, 250×4.6 mm, 5 μm and 250×10 mm, 5 respectively. Cytotoxity assays and PP inhibition assays for TTN and related analogues were performed as previously described for compound TTM and related congeners (Ju et al., 2009). […]

The subject of a further data set is MCF7. In words: in vitro cytotoxicity assay, MCF7. Conditions: MCF7 human cancer cell line. As for the experimental part:
as §1

The test system of another data set is Du145. Description: in vitro cytotoxicity assay, Du145. Particulars: Du145 human cancer cell line. As for the experimental part:
as §1

One may read the IC50 as the concentration that inhibits the measured activity by half. A higher IC50 goes with weaker potency. Consider “Tautomycetin [TTN (1), reference compound]”, for which the IC50 in the data set with HCT-115 was 6.8 ± 0.6 µM; in the data set on MCF7, 8.9 ± 0.9 µM; in the data set with Du145, 5.2 ± 0.4 µM.

For the origin of these results see patent US8580977B2 (priority 2010, dated 2013).
